Target: STAT3 (Homo sapiens, UniProt P40763)
Assay: STAT3 tyrosine phosphorylation inhibition
Assay type: biochemical
Details: STAT3 phosphorylation IC50 (μM) (mean ± SD), ELISA, eight dilutions 100-0.03 μM

The chains behind the UniProt entries cited, without tags or fusion partners.
UniProt P40763, whole entry: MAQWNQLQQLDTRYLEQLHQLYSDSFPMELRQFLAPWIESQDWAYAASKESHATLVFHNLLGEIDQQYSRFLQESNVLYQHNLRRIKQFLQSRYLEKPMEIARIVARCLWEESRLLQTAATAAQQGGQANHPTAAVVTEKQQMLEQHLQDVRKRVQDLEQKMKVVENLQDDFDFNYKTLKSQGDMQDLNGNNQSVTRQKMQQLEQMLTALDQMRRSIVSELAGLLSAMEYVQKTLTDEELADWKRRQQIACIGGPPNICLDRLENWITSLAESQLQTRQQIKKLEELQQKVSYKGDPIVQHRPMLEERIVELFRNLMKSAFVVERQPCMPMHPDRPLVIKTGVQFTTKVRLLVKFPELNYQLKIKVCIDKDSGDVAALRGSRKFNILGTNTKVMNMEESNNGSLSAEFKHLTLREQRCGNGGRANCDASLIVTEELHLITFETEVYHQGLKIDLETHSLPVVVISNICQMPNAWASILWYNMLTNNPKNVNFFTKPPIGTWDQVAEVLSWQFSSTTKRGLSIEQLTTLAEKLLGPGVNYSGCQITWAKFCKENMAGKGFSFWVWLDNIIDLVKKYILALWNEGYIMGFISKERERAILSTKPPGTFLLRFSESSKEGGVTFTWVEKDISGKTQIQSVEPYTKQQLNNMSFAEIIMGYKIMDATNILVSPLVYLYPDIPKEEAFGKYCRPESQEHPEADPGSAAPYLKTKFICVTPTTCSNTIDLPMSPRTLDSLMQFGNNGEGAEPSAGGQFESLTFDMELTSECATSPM

IC50: 3.52 ± 0.75 µM
SMILES: C[C@H]1COC2=C1C(=O)C(=O)c1c2ccc2c1CCCC2(C)C [Cryptotanshinone, reference compound]
